For 1 compound, Activity results are on record in ChEMBL document CHEMBL5370607 (J Med Chem, 2023).

The chains behind the UniProt entries cited, without tags or fusion partners. Where a name states a change or a piece, a line headed by the entry shows the natural chain unless it says otherwise.
UniProt P35348: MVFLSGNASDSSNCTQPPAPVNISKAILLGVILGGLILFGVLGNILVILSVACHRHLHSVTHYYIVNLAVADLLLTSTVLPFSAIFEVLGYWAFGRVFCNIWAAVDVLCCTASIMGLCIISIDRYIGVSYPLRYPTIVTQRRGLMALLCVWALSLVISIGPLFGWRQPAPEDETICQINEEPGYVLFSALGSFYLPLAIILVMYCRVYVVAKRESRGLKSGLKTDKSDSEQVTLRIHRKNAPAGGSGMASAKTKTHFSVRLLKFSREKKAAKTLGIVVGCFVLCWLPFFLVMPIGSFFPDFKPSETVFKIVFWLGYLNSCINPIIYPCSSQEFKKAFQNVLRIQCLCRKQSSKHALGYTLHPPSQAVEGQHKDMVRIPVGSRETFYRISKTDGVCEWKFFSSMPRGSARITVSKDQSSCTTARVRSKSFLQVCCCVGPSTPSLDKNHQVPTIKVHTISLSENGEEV
UniProt P25100, whole entry, looked up: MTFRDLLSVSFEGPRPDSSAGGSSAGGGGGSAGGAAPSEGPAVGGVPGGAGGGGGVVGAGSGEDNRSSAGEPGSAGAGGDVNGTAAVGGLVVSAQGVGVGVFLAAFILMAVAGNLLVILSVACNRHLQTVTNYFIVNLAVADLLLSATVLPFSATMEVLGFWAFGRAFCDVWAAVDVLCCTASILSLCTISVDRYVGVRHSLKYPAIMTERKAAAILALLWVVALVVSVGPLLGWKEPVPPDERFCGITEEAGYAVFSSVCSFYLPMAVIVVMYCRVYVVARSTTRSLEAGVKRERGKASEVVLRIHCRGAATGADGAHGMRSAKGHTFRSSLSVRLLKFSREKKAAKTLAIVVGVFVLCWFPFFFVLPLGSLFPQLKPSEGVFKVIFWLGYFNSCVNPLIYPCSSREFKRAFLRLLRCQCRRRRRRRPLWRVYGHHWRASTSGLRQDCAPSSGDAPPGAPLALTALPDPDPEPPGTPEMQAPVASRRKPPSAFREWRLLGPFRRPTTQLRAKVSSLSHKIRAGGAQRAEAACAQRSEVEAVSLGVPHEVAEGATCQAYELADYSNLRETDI
UniProt P35368, whole entry, looked up: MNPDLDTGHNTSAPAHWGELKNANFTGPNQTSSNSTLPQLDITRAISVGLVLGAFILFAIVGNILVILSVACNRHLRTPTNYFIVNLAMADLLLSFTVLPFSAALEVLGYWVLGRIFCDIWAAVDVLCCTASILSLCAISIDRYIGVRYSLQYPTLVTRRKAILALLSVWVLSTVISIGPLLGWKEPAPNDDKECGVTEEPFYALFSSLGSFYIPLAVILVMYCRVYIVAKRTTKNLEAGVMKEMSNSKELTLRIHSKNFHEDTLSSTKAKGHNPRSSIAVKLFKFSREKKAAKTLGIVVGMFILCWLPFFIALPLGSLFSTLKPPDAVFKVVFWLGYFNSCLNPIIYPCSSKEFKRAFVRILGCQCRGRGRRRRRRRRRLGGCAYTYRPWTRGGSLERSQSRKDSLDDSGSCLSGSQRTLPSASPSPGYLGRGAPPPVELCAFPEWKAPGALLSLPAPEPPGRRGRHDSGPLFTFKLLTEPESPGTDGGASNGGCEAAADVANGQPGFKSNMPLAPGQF
UniProt P41595, whole entry: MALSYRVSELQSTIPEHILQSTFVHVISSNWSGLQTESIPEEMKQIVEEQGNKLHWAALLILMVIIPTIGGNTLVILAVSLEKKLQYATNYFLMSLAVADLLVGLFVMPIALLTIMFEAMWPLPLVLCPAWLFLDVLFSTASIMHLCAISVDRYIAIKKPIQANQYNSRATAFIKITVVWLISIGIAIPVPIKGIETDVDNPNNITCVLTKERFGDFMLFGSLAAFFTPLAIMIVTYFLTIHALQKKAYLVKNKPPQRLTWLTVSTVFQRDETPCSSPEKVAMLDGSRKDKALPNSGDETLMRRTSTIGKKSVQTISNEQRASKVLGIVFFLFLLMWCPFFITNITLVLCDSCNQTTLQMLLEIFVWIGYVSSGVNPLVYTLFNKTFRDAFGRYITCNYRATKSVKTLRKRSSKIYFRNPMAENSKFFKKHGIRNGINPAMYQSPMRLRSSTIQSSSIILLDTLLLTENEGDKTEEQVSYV

Calls of active or inactive are those of the source. The rule behind the calls is not given here.

Assay [1] addresses Adrenergic receptor alpha-1 (Homo sapiens) (UniProt P35348+P25100+P35368). Nature of the assay: Binding affinity to adrenergic alpha-1 receptor (unknown origin) by radioligand binding assay. It counts as protein assay.
The target of assay [2] is 5-hydroxytryptamine receptor 2B (Homo sapiens) (UniProt P41595). Nature of the assay: Binding affinity to 5-HT2B receptor (unknown origin) by radioligand binding assay.

In the case of `Clc1cccc(Cn2ccc3c(N4CCNCC4)nc4ccccc4c32)c1`, the outcome in assay [1] and in assay [2] was inactive.
